Laboratory results: US6462178B1, “G protein” (Yong Hou Wong, priority 1999, dated 2002)

Amino acid sequences for entries named in this document (tags omitted). Residues count along the entry.
UniProt P22888, 27-699, species assumed: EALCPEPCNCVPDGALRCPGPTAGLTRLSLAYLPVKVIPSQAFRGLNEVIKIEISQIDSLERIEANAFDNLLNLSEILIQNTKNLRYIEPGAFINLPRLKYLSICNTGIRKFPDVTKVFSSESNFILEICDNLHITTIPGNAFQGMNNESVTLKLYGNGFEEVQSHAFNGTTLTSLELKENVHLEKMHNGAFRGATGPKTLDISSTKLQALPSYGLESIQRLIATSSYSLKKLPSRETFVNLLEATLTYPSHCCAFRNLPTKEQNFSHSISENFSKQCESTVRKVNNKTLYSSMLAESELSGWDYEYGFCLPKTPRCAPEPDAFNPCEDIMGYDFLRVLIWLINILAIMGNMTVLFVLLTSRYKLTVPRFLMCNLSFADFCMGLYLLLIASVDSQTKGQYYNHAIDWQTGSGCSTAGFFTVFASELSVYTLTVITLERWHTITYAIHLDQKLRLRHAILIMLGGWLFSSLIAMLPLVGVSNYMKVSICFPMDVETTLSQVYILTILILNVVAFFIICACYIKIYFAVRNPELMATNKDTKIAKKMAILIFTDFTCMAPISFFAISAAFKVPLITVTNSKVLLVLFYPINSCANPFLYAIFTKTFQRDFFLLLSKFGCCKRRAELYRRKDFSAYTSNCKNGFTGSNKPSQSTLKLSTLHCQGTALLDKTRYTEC

Assays:
μ-opioid receptor = molecular target: T1, μ-opioid receptor (Homo sapiens, UniProt P35372); assay: IP accumulation, μ-opioid receptor coexpressed with Gα subunit in COS-7; type: cell-based; settings: 100 nM DAGO; for IP Formation % Res.: relative to basal
T1 construct: expressed in transfected cells; host or cells: COS-7

[1] = molecular target: T2, luteinizing hormone receptor (LHR) (Homo sapiens, UniProt P22888); settings: cited from earlier work
T2 construct: expressed in transfected cells; host or cells: COS-7

[2] = COS-7, receptor + 16z25 chimera
[3] = COS-7, receptor + 16z44 chimera

| Substance | IP Formation Agonist (μ-opioid receptor; [2]) | IP Formation % Res. (μ-opioid receptor; [2]) [%] | IP Formation Agonist (μ-opioid receptor; [3]) | IP Formation % Res. (μ-opioid receptor; [3]) [%] | IP Formation Agonist (μ-opioid receptor; COS-7, receptor + Gα16) | IP Formation % Res. (μ-opioid receptor; COS-7, receptor + Gα16) [%] | stimulation of PLC ([1]; COS-7, luteinizing hormone receptor + Gα16, 1 μg/ml) [fold] | IP Formation Agonist ([1]; COS-7, receptor + Gα16, 1 μg/ml hCG) | IP Formation % Res. ([1]; COS-7, receptor + Gα16, 1 μg/ml hCG, relative to basal) [a %] |
| --- | --- | --- | --- | --- | --- | --- | --- | --- | --- |
| [D-Ala^2,N-Me-Phe^4,Gly^5-ol]enkephalin [DAGO] | 74.0 ± 3.7 | 224 | 68.5 ± 8.7 | 269 | 16.0 ± 0.8 | 134 | – | – | – |
| hCG: human choriogonadotropin, agonist of the luteinizing hormone receptor | – | – | – | – | – | – | 3 | 30.6 ± 1.2 | 300 |
